Measured values from ChEMBL document CHEMBL1817543, “New nitric oxide or hydrogen sulfide releasing aspirins” (J Med Chem, 2011).

Tests used:
[1] = tested on: Aorta; test: Vasodilatory activity at endothelium denuded Wistar rat thoracic aorta assessed as relaxation of phenylephrine-induced contraction preincubated for 30 mins before phenylephrine challenge in presence of 1 uM soluble guanylate cyclase inhibitor H-[1,2,4]Oxadiazolo[4,3-a]quinoxalin-1-one
[2] = tested on: Aorta; test: Vasodilatory activity at endothelium denuded Wistar rat thoracic aorta assessed as relaxation of phenylephrine-induced contraction

SMILES: O=[N+]([O-])OCC(CO)O[N+](=O)[O-] (configuration not stated)
- EC50 [1]: > 100000 nM
- EC50 [2]: 1700 nM
